Experimental findings from PubChem BioAssay AID504937 (National Center for Advancing Translational Sciences (NCATS), 2011) are described below.

Protein sequences, listed by entry. Tags and fused reporters are not part of them. Residues count along the entry.
UniProt P17405, 47-631 limits assumed: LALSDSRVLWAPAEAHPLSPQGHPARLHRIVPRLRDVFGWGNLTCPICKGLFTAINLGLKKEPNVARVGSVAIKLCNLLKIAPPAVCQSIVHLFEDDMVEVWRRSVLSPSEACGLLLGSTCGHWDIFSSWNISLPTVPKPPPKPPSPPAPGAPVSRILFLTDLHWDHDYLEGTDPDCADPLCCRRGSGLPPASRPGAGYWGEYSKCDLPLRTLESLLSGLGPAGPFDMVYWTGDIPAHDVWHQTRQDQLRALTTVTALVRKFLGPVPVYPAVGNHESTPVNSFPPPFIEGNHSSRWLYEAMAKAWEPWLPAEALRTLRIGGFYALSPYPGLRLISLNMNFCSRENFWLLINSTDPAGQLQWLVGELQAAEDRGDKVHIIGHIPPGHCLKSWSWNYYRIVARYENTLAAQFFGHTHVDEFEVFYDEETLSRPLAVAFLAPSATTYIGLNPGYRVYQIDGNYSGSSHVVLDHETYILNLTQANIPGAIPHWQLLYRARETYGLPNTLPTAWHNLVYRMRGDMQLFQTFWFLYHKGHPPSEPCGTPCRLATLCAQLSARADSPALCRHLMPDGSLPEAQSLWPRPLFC

This is a selection; strong and weak results do not stand in their true shares. Some results for these compounds are left out of this collection, so the calls shown say nothing about other tests. The source made the active and inactive calls. The call rests on the fitted dose curve; in most records, active means well fitted inhibition curve with a large enough effect; inconclusive means small, poorly fitted or top-dose-only effect; inactive means no such curve, though single readings can be large or run the other way.

For this test, the target named is Sphingomyelin phosphodiesterase (Homo sapiens) (UniProt P17405). The experiment in a line: Inhibitors of Secretory Acid Sphingomyelinase (S-ASM): qHTS. The conditions noted are these: placental ASM, HMU-PC fluorogenic substrate (series up to 57.5 µM), 60 min; at 57.5 µM (top of the series). In general terms: In qHTS, concentration-response curves come from the screen itself.
Consider `O=C(NCC1(N2CCCCC2)CCCCC1)c1cc(F)c(F)cc1Cl`, for which the activity change, negative = inhibition was inactive: 0.15%.

Regarding `C=CCN1CCN(CCOC(=O)C(O)(c2ccccc2)c2ccccc2)CC1`, the activity change, negative = inhibition is inactive: 5.4%.

Take `COc1ccc(C(=O)NCC2(N(C)C)CCCCC2)cc1`: the activity change, negative = inhibition was inactive: -0.0304%.

Regarding `O=C(NCC1(N2CCCCC2)CCCCC1)c1cccc(Br)c1`, the activity change, negative = inhibition is inactive: -1.93%.

In the case of `CCN1CCCC(OC(=O)C2(O)c3ccccc3C=Cc3ccccc32)C1` (stereo not given), the activity change, negative = inhibition was inactive: 5.09%.

As for `Cc1cc(C(=O)NCC2(N3CCCCC3)CCCCC2)ccc1[N+](=O)[O-]`, the activity change, negative = inhibition is inactive: -0.112%.

`CN(C)c1ccc(C(=O)NCC2(N(C)C)CCCCC2)cc1`: the activity change, negative = inhibition was inactive: 2.24%.

With `CN(C)C1CCCC1OC(=O)C(O)(c1ccccc1)c1ccccc1` (stereo not given), the activity change, negative = inhibition was inactive: 4.24%.

In the case of `Cc1ccccc1C(=O)NCC1(N2CCCCC2)CCCCC1`, the activity change, negative = inhibition was inactive: 4.24%.

For the molecule `COc1cc(SC)ccc1C(=O)NCC1(N(C)C)CCCCC1`, the activity change, negative = inhibition was inactive: -1.13%.

As for `CCN(CC)CC(C)C(C)OC(=O)C(O)(c1ccccc1)c1ccccc1` (stereo not given), the activity change, negative = inhibition was inactive: 3.47%.

As to `CC(C)N1C(=O)CC2(CCN(CCOC(=O)C(O)(c3ccccc3)c3ccccc3)CC2)C1=O`, the activity change, negative = inhibition is inactive: -1.43%.

Turning to `Cc1ccc(C(=O)NCC2(N3CCCCC3)CCCCC2)cc1`, the activity change, negative = inhibition was inactive: 8.02%.

As to `O=C(NCC1(N2CCCCC2)CCCCC1)c1cc([N+](=O)[O-])ccc1Cl`, the activity change, negative = inhibition is inactive: 0.501%.

On to `CN1[C@@H]2CC[C@H]1CC(OC(=O)C(O)(c1ccccc1)c1ccccc1)C2` (stereo not given in full), for which the activity change, negative = inhibition was inactive: 1.23%.

For `COc1ccc(Br)c(C(=O)NCC2(N3CCCCC3)CCCCC2)c1`, the activity change, negative = inhibition is inactive: -1.67%.

`O=C(OCCN1CCCC1)C(O)(c1ccccc1)c1ccccc1`: the activity change, negative = inhibition is inactive: -0.955%.

With `CC(C)Oc1ccc(C(=O)NCC2(N(C)C)CCCCC2)cc1`, the activity change, negative = inhibition was inactive: -3.21%.

For `CN(C)c1cccc(C(=O)NCC2(N(C)C)CCCCC2)c1`, the activity change, negative = inhibition was inactive: 19.9%.

For the molecule `O=C(OC1CN2CCC1CC2)C(CO)(c1ccccc1)c1ccccc1` (stereo not given), the activity change, negative = inhibition is inactive: 0.74%.

For the molecule `COc1ccc(Cl)cc1C(=O)NCC1(N(C)C)CCCCC1`, the activity change, negative = inhibition was inactive: 0.573%.

As to `COc1cccc(C(=O)NCC2(N3CCCCC3)CCCCC2)c1`, the activity change, negative = inhibition was inactive: -1.38%.

In the case of `O=C(NCC1(N2CCCCC2)CCCCC1)c1cccc(Cl)c1`, the activity change, negative = inhibition was inactive: -2.95%.

As for `CN(C)C1(CNC(=O)c2ccc(Br)cc2)CCCCC1`, the activity change, negative = inhibition is inactive: 5.17%.

On to `COc1cc(C(=O)NCC2(N(C)C)CCCCC2)c([N+](=O)[O-])cc1OC`, for which the activity change, negative = inhibition was inactive: 2.76%.
